The numbers were not newly measured in patent publication US20050176641A1, “Long lasting natriuretic peptide derivatives” (CONJUCHEM, INC., priority 2000, published 2005), which cites them from elsewhere.

For this series the following is noted: cited from earlier work.

Regarding urodilatin, the in vivo half-life entry is “approximately 6 min”.
